# Reference: paper PMC6152622, “Synthesis and Evaluation of Phenylxanthine Derivatives as Potential Dual A2AR Antagonists/MAO-B Inhibitors for Parkinson’s Disease” (Molecules : A Journal of Synthetic Chemistry and Natural …, 2017)
# Protein sequences, listed by entry. Tags and fused reporters are not part of them.
# UniProt P27338, whole entry: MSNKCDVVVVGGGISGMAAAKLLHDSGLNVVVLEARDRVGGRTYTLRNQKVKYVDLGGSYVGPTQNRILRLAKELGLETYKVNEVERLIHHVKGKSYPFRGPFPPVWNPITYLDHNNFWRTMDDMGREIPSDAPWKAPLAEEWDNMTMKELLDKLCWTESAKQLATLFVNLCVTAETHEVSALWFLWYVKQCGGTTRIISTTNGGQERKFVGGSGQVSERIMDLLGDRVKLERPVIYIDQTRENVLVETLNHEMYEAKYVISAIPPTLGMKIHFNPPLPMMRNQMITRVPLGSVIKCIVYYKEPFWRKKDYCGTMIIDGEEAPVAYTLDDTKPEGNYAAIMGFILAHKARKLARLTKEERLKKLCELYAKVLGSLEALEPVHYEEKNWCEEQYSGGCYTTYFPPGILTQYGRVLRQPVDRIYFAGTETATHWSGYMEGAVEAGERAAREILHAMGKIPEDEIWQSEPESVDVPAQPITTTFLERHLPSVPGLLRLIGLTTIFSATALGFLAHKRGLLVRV
# Tests used:
# recombinant human MAO-B = recombinant human MAO-B (Homo sapiens, UniProt P27338); assay: MAO-B inhibition, MAO-Glo commercial kit; settings: read-out: Ki hMAO-B; Ki converted from IC50 by Cheng-Prusoff; duplicate, mean ± SD
# Method: Inhibitory potency on MAO-B enzyme from recombinant human MAO-B were carried out by a fluorometric method with a commercial kit (Promega, MAO-Glo Assay). The MAO enzyme incubation experiments were carried with a MAO-B substrate, methyl (S)-2-(6-(2-aminoethoxy) benzo[d]thiazol-2-yl)-4,5-dihydrothiazole-4-carboxylate, which was converted to luciferin methyl ester. Then the “Luciferin Detection Reagent” was added to change the methyl ester derivative to luciferin, stop the MAO-B reaction, and simultaneously produce light. The intensity of light is directly in proportion to MAO-B activity. The assay was carried in a 96-well black opaque microplate in duplicate. The reaction mixture was composed of 12.5 μL of MAO-B substrate (a final concentration of 4 μM), 25 μL of human MAO-B (1 μg of protein/well), and 12.5 μL of test compounds for each well. After 1 h of incubation at 37 °C, each well added 50 μL of “Luciferin Detection Reagent”, and incubated an additional 20 min. the luminescent signal of microplate was measured by a luminometer. The signal from reaction of MAO-B enzyme and substrate without inhibitors accounted as the positive control, whereas the signal from reaction of MAO-B enzyme and inhibitors in the absence of substrate accounted as the negative control. Compound concentrations of 1 μM were tested at first. IC50 values (the half maximal inhibitory concentration) were performed from concentration–response curves, plotted by the GraphPad Prism software. All experiments were performed in duplicate, and data are expressed as mean ± SD.
# human A2AR = human A2AR (Homo sapiens, UniProt P29274); assay: Radioligand binding assay ([3H]ZM241385 competition) on membranes of HEK-293 cells transfected with human A2AR; settings: read-out: Ki hA2AR; [3H]ZM241385 displacement; Ki converted from IC50 by Cheng-Prusoff; duplicate, mean ± SD
# [1] = Plasma pharmacokinetics after i.p. administration; settings: rats, 50 mg/kg, n = 6
# Excerpt: (§1) Sprague-Dawley rats (200 ± 20 g) were obtained from the Laboratory Animal Center of Wenzhou Medical University (Wenzhou, China) to study the pharmacokinetics and tissue distribution studies (TDS) of PX-D-P6 and PX-E-P8 following intraperitoneal injection (i.p.) administration. The experiment procedures and protocols were approved the Animal Care and Use Committee of Wenzhou Medical College and complied with the Guide for the Care and Use of Laboratory Animals. The corresponding ethical approval code was WMU20161025.
# (§2) The chosen compounds dissolved in suspension formulation (2 % Tween 80–saline) were administered to each rat at a dose of 50 mg/kg. Blood samples (0.3 mL) were collected from the caudal vein into 1.5 mL tapered plastic centrifuge tubes (pretreated with K2EDTA as an anticoagulant) at pre-dose, 0.08, 0.16, 0.25, 0.5, 1, 2, 4, 8, 12, 24 h after i.p. administration. Separately, blood and brain samples were collected at pre-dose and 1 h for TDS. Blood samples were immediately centrifuged at 3000 g for 10 min for isolation of the plasma. Brain samples were homogenized in phosphate buffer saline. 100 μL plasma or 200 μL brain sample was precipitated with addition of 400 μL acetonitrile and vortex mixed for 1 min and centrifuged at 10,000 g for 10 min. Finally, 2μL supernatant was injected into UPLC/MS system. Calibration standards samples were prepared with blank rat plasma or brain homogenates. Plasma pharmacokinetic parameters were analyzed by DAS (Drug and Statistics) software (Version 2, Wenzhou Medical University, Wenzhou, China).
# [2] = tested on: haloperidol-induced catalepsy in rats; assay: Haloperidol-induced catalepsy, bar test; settings: i.p.
# Method: Catalepsy was measured using a thin metal bar test at 9.0 cm height. In this test, each rat was injected intraperitoneally by haloperidol (1.5 mg/kg). Before i.p. administration of vehicle (2% Tween 80–saline), PX-D-P6 and PX-E-P8 (5, 15, 50 mg/kg), at time 0 min, we tested all rats for successful induction of catalepsy. The length of time (descent latency) it persisted in hanging onto the metal bar was measured for a period of up to 300 s (maximum score). After this period, the rat was gently removed from the bar. The high bar test was performed 20 min after the injection of compound. Descent latencies have been presented as median and interquartile ranges. Differences between medians were analyzed by Kruskal-Wallis test, followed by Bonferroni's test.
# [3] = Plasma and brain distribution at 1 h after i.p. administration; settings: rats, 1 h after i.p. 50 mg/kg
# Excerpt: as §1, §2
Ki (recombinant human MAO-B) [µM],Ki (human A2AR) [µM],SMILES,further results
4.76,7.1,Cn1c(=O)c2c(nc(-c3cccc(NC(=O)/C=C/c4cccc(C(F)(F)F)c4)c3)n2C)n(C)c1=O,
2.86,3.05,COc1ccc(C(=O)Nc2cccc(-c3nc4c(c(=O)n(C)c(=O)n4C)n3C)c2)cc1,
2.17,4.51,Cc1ccc(C(=O)Nc2cccc(-c3nc4c([nH]3)c(=O)n(C)c(=O)n4C)c2)cc1,
8.11,4.97,Cn1c(=O)c2[nH]c(-c3ccc(NC(=O)/C=C/c4ccccc4)cc3)nc2n(C)c1=O,
0.47,1.19,COc1ccc(C(=O)Nc2ccc(-c3nc4c(c(=O)n(C)c(=O)n4C)n3C)cc2)cc1,
,9.65,Cn1c(=O)c2[nH]c(-c3cccc(NC(=O)/C=C/c4ccccc4)c3)nc2n(C)c1=O,
3.11,2.91,Cn1c(=O)c2[nH]c(-c3cccc(NC(=O)c4ccccc4)c3)nc2n(C)c1=O,
1.32,2.31,Cn1c(=O)c2[nH]c(-c3ccc(NC(=O)c4ccccc4)cc3)nc2n(C)c1=O,
,,Cn1c(=O)c2c(nc(-c3ccc(NC(=O)c4ccccc4)cc3)n2C)n(C)c1=O,"AUC0→t [1]: 30526.2 ± 1206.7 ng·h/mL; CL [1]: 91.2 ± 20.5 mL/min/kg; Cmax [1]: 2112.6 ± 508.4 ng/mL; Tmax [1]: 0.51 ± 0.15 h; t1/2 [1]: 4.51 ± 0.61 h; Anti-catalepsy ability ([2]; 50 mg/kg (high dose)): significant anti-catalepsy ability; Effect on haloperidol-induced catalepsy ([2]; different doses (5, 15 and 50 mg/kg), haloperidol 1.5 mg/kg): significant reduction in catalepsy; B/P Ratio (brain/plasma ratio) [3]: 1.14; Brain concentration ([3]; n = 6): 1289 ± 132 ng/g; Plasma concentration ([3]; n = 6): 1126 ± 207 ng/mL"
2.94,2.67,COc1ccc(C(=O)Nc2ccc(-c3nc4c([nH]3)c(=O)n(C)c(=O)n4C)cc2)cc1,
2.63,7.44,Cn1c(=O)c2[nH]c(-c3cccc(NC(=O)/C=C/c4cccc(C(F)(F)F)c4)c3)nc2n(C)c1=O,
2.48,7.23,Cn1c(=O)c2[nH]c(-c3cccc(NC(=O)/C=C/c4ccc(F)cc4)c3)nc2n(C)c1=O,
4.22,5.18,Cn1c(=O)c2[nH]c(-c3ccc(NC(=O)/C=C/c4cccc(C(F)(F)F)c4)cc3)nc2n(C)c1=O,
9.36,3.41,Cn1c(=O)c2[nH]c(-c3ccc(NC(=O)/C=C/c4ccc(F)cc4)cc3)nc2n(C)c1=O,
1.21,0.39,Cc1ccc(C(=O)Nc2ccc(-c3nc4c(c(=O)n(C)c(=O)n4C)n3C)cc2)cc1,
> 10,9.58,Cn1c(=O)c2[nH]c(-c3cccc(NC(=O)/C=C/c4cccc(Cl)c4)c3)nc2n(C)c1=O,
> 10,1.46,Cn1c(=O)c2c(nc(-c3ccc(NC(=O)/C=C/c4ccccc4)cc3)n2C)n(C)c1=O,
3.72,5.25,Cn1c(=O)c2c(nc(-c3cccc(NC(=O)/C=C/c4ccccc4)c3)n2C)n(C)c1=O,
5.04,0.79,Cn1c(=O)c2c(nc(-c3ccc(NC(=O)/C=C/c4ccc(F)cc4)cc3)n2C)n(C)c1=O,
2.06,2.87,Cc1ccc(C(=O)Nc2ccc(-c3nc4c([nH]3)c(=O)n(C)c(=O)n4C)cc2)cc1,
2.93,9.18,Cn1c(=O)c2c(nc(-c3cccc(NC(=O)/C=C/c4cccc(Cl)c4)c3)n2C)n(C)c1=O,
2.58,7.74,Cn1c(=O)c2c(nc(-c3cccc(NC(=O)/C=C/c4ccc(F)cc4)c3)n2C)n(C)c1=O,
2.57,2.78,Cc1ccc(C(=O)Nc2cccc(-c3nc4c(c(=O)n(C)c(=O)n4C)n3C)c2)cc1,
2.57,3.77,COc1ccc(C(=O)Nc2cccc(-c3nc4c([nH]3)c(=O)n(C)c(=O)n4C)c2)cc1,
> 10,1.98,Cn1c(=O)c2c(nc(-c3ccc(NC(=O)/C=C/c4cccc(C(F)(F)F)c4)cc3)n2C)n(C)c1=O,
2.26,2.03,Cn1c(=O)c2c(nc(-c3cccc(NC(=O)c4ccccc4)c3)n2C)n(C)c1=O,
